# Test results: US8759528B2, “Piperidine derivatives, pharmaceutical compositions and uses thereof” (Boehringer Ingelheim International GmbH, priority 2011, dated 2014)
# Protein sequences, listed by entry. Tags and fused reporters are not part of them. Residues count along the entry.
# UniProt O00763, 129-2458 limits assumed: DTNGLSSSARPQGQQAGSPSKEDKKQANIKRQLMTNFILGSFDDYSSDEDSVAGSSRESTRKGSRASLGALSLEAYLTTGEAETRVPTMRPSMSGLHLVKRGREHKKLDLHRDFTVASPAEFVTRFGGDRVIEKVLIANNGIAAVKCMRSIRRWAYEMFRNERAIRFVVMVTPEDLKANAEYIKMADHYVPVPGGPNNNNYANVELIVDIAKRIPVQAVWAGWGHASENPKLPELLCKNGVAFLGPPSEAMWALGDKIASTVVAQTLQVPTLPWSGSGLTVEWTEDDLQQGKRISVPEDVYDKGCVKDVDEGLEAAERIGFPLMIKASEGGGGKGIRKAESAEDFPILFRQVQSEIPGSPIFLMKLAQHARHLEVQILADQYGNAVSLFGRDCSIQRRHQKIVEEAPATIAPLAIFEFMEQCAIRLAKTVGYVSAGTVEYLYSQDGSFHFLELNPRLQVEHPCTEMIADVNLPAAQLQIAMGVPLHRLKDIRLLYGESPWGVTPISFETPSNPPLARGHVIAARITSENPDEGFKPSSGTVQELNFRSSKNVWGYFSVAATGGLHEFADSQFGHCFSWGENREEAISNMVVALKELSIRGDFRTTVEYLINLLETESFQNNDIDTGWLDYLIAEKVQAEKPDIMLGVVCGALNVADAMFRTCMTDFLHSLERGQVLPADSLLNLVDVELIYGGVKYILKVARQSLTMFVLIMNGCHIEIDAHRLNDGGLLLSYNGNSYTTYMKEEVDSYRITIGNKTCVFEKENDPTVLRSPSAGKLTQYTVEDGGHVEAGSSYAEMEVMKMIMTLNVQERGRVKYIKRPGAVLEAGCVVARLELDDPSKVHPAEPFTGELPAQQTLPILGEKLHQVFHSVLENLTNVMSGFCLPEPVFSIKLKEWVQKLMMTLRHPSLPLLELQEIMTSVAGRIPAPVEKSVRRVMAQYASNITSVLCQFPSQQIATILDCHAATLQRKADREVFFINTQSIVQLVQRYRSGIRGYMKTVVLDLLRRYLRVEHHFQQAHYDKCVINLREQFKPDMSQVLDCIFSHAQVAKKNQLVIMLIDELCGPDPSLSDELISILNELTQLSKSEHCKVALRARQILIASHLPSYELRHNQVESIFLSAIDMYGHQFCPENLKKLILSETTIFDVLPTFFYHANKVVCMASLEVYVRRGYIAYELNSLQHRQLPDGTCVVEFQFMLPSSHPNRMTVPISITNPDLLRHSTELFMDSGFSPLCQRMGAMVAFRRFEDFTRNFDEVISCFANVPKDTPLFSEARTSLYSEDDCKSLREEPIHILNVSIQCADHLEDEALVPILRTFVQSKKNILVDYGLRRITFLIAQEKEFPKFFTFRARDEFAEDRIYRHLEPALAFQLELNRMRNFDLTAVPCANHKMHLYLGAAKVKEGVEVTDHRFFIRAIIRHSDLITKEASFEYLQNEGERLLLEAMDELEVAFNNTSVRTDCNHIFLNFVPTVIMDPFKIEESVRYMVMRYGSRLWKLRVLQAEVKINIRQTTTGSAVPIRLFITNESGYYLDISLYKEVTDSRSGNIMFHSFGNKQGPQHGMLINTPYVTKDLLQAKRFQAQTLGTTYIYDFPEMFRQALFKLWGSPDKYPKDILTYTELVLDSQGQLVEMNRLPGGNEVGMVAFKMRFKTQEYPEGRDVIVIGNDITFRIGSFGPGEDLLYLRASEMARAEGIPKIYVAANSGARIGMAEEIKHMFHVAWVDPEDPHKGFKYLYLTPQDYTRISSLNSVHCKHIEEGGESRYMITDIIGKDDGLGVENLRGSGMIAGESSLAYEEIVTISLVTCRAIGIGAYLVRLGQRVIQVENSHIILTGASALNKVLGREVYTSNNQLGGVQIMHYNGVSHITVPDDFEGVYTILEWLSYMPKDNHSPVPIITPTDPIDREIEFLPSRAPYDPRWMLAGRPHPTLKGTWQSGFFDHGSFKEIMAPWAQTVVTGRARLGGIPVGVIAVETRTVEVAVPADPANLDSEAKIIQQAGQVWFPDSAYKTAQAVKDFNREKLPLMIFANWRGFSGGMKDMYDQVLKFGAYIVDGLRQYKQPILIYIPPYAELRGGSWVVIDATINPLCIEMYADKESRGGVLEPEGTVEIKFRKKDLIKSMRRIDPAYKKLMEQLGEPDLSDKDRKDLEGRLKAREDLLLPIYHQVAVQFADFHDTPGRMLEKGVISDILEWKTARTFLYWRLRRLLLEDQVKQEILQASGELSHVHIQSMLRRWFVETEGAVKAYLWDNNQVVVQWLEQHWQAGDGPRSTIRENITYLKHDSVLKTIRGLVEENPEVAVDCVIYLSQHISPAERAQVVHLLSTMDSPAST
# Target: human ACC2 (Homo sapiens, UniProt O00763)
# Assay: ACC2 spectrophotometric 384 well assay (NADH-linked, coupled lactate dehydrogenase/pyruvate kinase)
# Conditions: hACC2 construct lacking the 128 N-terminal amino acids; 25° C., 340 nm, 15 minutes
# Protocol: Spectrophotometric 384 Well Assay
# Malonyl CoA formation by acetyl CoA carboxylases is stoichometrically linked to the consumption of ATP. ACC2 activity is measured in a NADH-linked kinetic method measuring ADP generated during the ACC reaction using a coupled lactate dehydrogenase/pyruvate kinase reaction.
# For biological testing, a human ACC2 construct which lacks the 128 amino acids at the N-terminus for increased solubility (nt 385-6966 in Genbank entry AJ575592) is cloned. The protein is then expressed in insect cells using a baculoviral expression system. Protein purification is performed by anion exchange. All compounds are dissolved in dimethyl sulfoxide (DMSO) to a concentration of 10 mM.
# Assay reactions are then carried out in 384-well plates, with hACC2 in an appropriate dilution and at final assay concentrations (f.c.) of 100 mM Tris (pH 7.5), 10 mM trisodium citrate, 25 mM KHCO3, 10 mM MgCl2, 0.5 mg/ml BSA, 3.75 mM reduced L-glutathione, 15 U/ml lactate dehydrogenase, 0.5 mM phosphoenolpyruvate, 15 U/ml pyruvate kinase, compounds at different concentrations at final DMSO concentrations of 1%.
# The enzymatic reaction is then started by addition of a mixture of NADH, acetyl Coenzyme A (both […].) and ATP (500 uM f.c.). The decrease of the optical density (slope S) is then determined at 25° C. at a wavelength of 340 nm over 15 minutes in a spectrophotometric reader. […]
smiles,measurement,value
CCNC(=O)C(C)c1ccc(C2CCN(c3ccc(OCC)cc3OC)CC2)cc1 (stereo not shown),IC50,590 nM
